# Tested on: Pseudomonas aeruginosa (ATCC 9027)
# Assay: Microbial challenge testing
# Assay type: cell-based
# Experimental: The single ambulatory pump dose preparation scheme and administration configuration was simulated. […] Ten vials of reconstituted Pseudomonas aeruginosa (ATCC 9027) were pooled before being aliquoted to create the final formulations. To samples were collected from the mixing bottles upon completion of the formulation preparation steps. Corresponding pump cassettes were filled with the remaining stabilizer solutions and incubated at 32±2° C. The 24-hour and 48-hour time points were thoroughly mixed within the cassettes to ensure a uniform P. aeruginosa suspension before sample collection. After collection, samples were immediately subjected to bioburden testing. The microbial challenge testing results can be seen below in Table 16.
# For the study, the single ambulatory pump dose preparation scheme was simulated. P. aeruginosa and C. albicans microbes were reconstituted and pooled before being added to the final dosing solutions. Each solution was added to its corresponding cassette and To samples were collected immediately upon cassette filling. This procedure accounted for any changes in microbial growth patterns that may be associated with syringe stress exposure. After To collection, corresponding cassettes were incubated at 32±2° C. The 24-, 72- and 168-hour time points were thoroughly mixed to ensure a uniform microbe suspension before sample collection. […]
substance,measurement,value
"rHA: recombinant human albumin, blocking agent",effect of rHA in the stabilizer solution on microbial growth,does not affect microbial growth

# From patent US20220323583A1, “Pharmaceutical Formulations of Bi-Specific Diabodies and Use of the Same” (MacroGenics, Inc., priority 2019, published 2022)
